Here are results for one molecule from ChEMBL document CHEMBL1146036, “Structural determinants of opioid activity in derivatives of 14-aminomorphinones: effect of substitution in the aromatic ring of cinnamoylaminomorphinones and codeinones” (J Med Chem, 2006).

By UniProt entry, the sequences of proteins in these tests, tags left out.
UniProt P41143, whole entry, looked up: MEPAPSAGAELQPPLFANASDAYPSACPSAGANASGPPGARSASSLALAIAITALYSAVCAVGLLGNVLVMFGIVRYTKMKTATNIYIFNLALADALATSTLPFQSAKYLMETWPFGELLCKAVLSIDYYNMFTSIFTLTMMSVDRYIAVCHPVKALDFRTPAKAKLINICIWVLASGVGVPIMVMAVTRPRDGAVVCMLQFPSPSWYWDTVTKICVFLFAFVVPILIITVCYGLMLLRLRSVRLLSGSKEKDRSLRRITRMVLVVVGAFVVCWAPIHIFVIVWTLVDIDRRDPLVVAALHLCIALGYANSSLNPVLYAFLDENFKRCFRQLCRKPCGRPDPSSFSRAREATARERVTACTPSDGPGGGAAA

SMILES strings stand for the structures.

The experiment addresses Delta-type opioid receptor (Homo sapiens, UniProt P41143). As to the kind of experiment: Stimulation of [35S]GTPgammaS binding to human recombinant DOR relative to DPDPE. It is filed as functional. A general note: GTPγS is a poorly hydrolysed GTP analogue; its binding reports G protein activation.

With `CN1CC[C@]23c4c5cccc4O[C@H]2C(=O)CC[C@@]3(NC(=O)/C=C/c2ccccc2Cl)[C@H]1C5`, the Activity is 115%.
